Assay results as given in patent US8778966B2, “Quinolinone derivatives as PARP and tank inhibitors” (Janssen Pharmaceutica, NV, priority 2007, dated 2014).

The chains behind the UniProt entries cited, without tags or fusion partners.
UniProt P09874, whole entry: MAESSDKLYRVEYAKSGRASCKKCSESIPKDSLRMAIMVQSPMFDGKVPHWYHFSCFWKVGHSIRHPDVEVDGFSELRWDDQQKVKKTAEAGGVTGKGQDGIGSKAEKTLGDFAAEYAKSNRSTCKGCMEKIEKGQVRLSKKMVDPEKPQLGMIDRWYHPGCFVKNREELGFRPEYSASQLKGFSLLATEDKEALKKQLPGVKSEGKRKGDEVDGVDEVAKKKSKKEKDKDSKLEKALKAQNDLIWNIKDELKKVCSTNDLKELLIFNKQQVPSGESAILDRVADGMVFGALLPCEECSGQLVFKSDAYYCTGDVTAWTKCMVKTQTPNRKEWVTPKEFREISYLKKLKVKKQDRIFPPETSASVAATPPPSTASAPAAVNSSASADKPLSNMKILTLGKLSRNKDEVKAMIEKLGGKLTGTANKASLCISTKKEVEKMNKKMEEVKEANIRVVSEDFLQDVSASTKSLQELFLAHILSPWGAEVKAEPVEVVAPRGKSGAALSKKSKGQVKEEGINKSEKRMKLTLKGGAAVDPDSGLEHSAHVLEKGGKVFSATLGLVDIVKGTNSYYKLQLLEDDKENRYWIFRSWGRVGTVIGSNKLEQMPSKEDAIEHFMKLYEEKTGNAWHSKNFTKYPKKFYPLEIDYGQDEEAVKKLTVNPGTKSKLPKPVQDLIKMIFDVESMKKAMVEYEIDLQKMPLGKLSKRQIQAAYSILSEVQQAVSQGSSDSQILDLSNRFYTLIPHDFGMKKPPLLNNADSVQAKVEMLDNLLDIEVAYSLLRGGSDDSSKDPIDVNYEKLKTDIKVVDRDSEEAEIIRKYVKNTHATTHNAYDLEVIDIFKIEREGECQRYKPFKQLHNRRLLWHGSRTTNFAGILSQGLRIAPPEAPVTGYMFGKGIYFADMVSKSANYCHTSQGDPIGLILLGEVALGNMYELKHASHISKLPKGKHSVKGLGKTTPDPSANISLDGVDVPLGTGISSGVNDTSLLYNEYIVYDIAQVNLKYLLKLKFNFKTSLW

Columns and labels:
Human PARP-1 enzyme = Human PARP-1 enzyme (Homo sapiens, UniProt P09874); assay: In vitro Scintillation Proximity Assay (SPA) for PARP-1 inhibitory activity
Protocol: Compounds of the present invention were tested in an in vitro assay based on SPA technology (proprietary to GE healthcare).
In principle, the assay relies upon the well established SPA technology for the detection of poly(ADP-ribosyl)ation of biotinylated target proteins, i.e histones. This ribosylation is induced using nicked DNA activated PARP-1 enzyme and [^3H]-nicotinamide adenine dinucleotide ([^3H]-NAD^+) as ADP-ribosyl donor.
Histones (type II-A, supplier: Sigma) were biotinylated using the biotinylation kit of Amersham and stored aliquoted at −20° C. A stock solution of 100 mg/ml SPA poly(vinyl toluene) (PVT) beads (supplier: Amersham) was made in PBS. A stock solution of 61.6 nM [^3H]-NAD^+ was made by adding [^3H]-NAD^+ (0.1 mCi/ml, supplier: Perkin Elmer) to incubation buffer (50 mM Tris/HCl, pH 8; 0.2 mM DTT; 4 mM MgCl2). A solution of 4 mM NAD^+ (supplier: Sigma) was made. Human PARP-1 enzyme was obtained from Trevigen. Biotinylated histones and PVT-SPA beads were mixed and pre-incubated for 30 min. at room temperature. PARP-1 enzyme (concentration was lot dependent) was mixed with the nicked DNA and the mixture was pre-incubated for 30 min. at 4° C. Equal parts of this histones/PVT-SPA beads solution and PARP-1 enzyme/DNA solution were mixed and 75 μl of this mixture together with 1 μl of compound in DMSO and 25 μl of [^3H]-NAD^+ was added per well into a 96-well microtiterplate. The final concentrations in the incubation mixture were 2 μg/ml for the biotinylated histones, 2 mg/ml for the PVT-SPA beads, 0.25 μg/ml for the nicked DNA and between 0.1-0.2 μg/ml for the PARP-1 enzyme. […] The beads were sedimented by centrifugation (10 min, 800 rpm). and plates transferred to a TopCountNXT™ (Packard) for scintillation counting, values were expressed as counts per minute (cpm). […] For each sample, the amount of cpm was expressed as a percentage of the mean cpm value of the controls. […] Herein the effects of test compounds are expressed as pIC50 (the negative log value of the IC50-value). […]

tubulin = assay: Tubulin polymerization assay; conditions: tested at 20 μM and 5 μM
Protocol: The tubulin polymerization assay is an adaptation of an assay originally described by Bonne, D. et al. (J. Biol. Chem., 1985, 260:2819-25). The assay kit was purchased from Cytoskeleton, Inc. (catalogue number BK011) and the assay was performed as described by the supplier with the following modifications. The assay was run in a 384-well black Proxiplate (Perkin Elmer) and volumes were adapted accordingly. The reactions were carried out in a final volume of 10 μl. Compounds were added to 25 μl of the reaction mix in 96-well PP plates (Corning) on ice and 10 μl of this mixture was dispensed into duplicates of the 384-well Proxiplates pre-warmed to 37° C. in a Fluoroskan Ascent plate reader (Thermo Scientific). Fluorescence measurements were taken every minute for one hour. The maximum slope of each well was determined (linear regression through 4 consecutive points) and polymerization was calculated as a percentage of polymerization observed in the absence of compound. Compounds were first measured at a concentration of 20 μM and then at 5 μM for those showing more than 50% inhibition at 20 μM as compared to the polymerization observed in the absence of compound. Results are reported in Table F-2 as scores defined as: a compound showing 0 to 50% inhibition at 20 μM is reported as score 1; a compound showing more than 50% inhibition at 5 μM is reported as score 3.

PC3 cells = assay: EB1 Comet (microtubule disruption) assay; conditions: 1 hour treatment
Protocol: The Eb1 Comet assay relies on the detection of the Eb1 protein at the plus end of polymerizing microtubules (Mimori-Kiyosue, 2000) using indirect immunofluorescence. Disruption of microtubule dynamics through de-polymerization or stabilization results in a de-localization of Eb1 from the growing microtubule ends and this is visualized by the disappearance of Eb1 containing cytoplasmic foci.
Briefly, human prostate cancer PC3 cells obtained from the American Type Culture Collection were grown in 96-well plates (Greiner, cat. no. 655090) in HAM's F12 medium as recommended by the provider (ATCC). The cells were treated for 1 hour at 37° C. with compounds dissolved in DMSO (0.6% final DMSO concentration). The culture medium was then removed by aspiration and the cells were fixed by adding cold methanol (−20 C). After a 15 min. incubation at −20 C, the cells were washed twice with DPBS (Gibco) containing 0.5% Triton X-100. Mouse Eb1 antibody (BD Transduction Laboratories, cat. no. 610534) was added to the cells (1/250 dilution in DPBS containing 1% BSA) and incubated overnight at room temperature. […] Compound dependent microtubule disruption was visually determined by the disappearance in Eb1 foci. The lowest active concentration (LAC) was determined as the concentration where Eb1 foci were absent in at least 50% of the treated cells.

SMILES	in vitro SPA assay PARP-1 pIC50 (Human PARP-1 enzyme)	tubulin polymerisation score (tubulin)	EB1 pLAC (PC3 cells)
CCc1cc2ccc(C(C)(C#N)Cc3cccc([N+](=O)[O-])c3)cc2[nH]c1=O (stereo not shown)	7.3	–	–
CCc1cc2ccc(C(C)(C#N)C3CCc4c(Cl)ccnc43)cc2[nH]c1=O (single isomer, unassigned) [246]	7.7	3 (a compound showing more than 50% inhibition at 5 μM is reported as score 3)	8
CCc1cc2ccc(C(C)(C#N)C3CCc4c(Cl)ccnc43)cc2[nH]c1=O (single isomer, unassigned) [247]	7.5	3 (a compound showing more than 50% inhibition at 5 μM is reported as score 3)	7
